The text below walks through data of US8158643B2, “Substituted diaza-spiro-pyridinone derivatives for use in MCH-1 mediated diseases” (Janssen Pharmaceutica N.V., priority 2006, dated 2012).

Chains of the proteins cited; added tags and fusions are not shown.
UniProt Q99705, whole entry: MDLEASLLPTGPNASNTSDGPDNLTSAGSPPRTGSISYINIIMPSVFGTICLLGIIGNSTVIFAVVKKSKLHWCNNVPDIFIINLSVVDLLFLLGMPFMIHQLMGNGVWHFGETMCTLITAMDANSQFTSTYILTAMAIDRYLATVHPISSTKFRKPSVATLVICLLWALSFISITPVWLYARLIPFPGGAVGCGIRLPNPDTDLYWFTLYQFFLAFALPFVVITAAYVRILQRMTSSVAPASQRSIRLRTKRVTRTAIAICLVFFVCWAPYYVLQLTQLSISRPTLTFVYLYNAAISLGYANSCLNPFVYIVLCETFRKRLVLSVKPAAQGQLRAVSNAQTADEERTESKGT

This assay concerns the target human MCH-1 receptor (Homo sapiens, UniProt Q99705). The assay can be described thus: Ca2+ mobilization experiment for the MCH-1 receptor (FLIPR), inhibition of MCH-induced Ca2+ response. Conditions: CHO cells stably expressing human MCH-1 receptor, submaximal MCH concentration. (Calcium flux is commonly read through the fluorescence of an indicator in the cells.)

Molecules are shown by their SMILES.

Regarding `O=c1cc(OCc2ccccc2)ccn1-c1ccc(N2CC3(CCNCC3)C2)nc1`, the “MCH-1 pIC50” value turned out to be 7.2.
For the compound `O=c1cc(OCc2ccc(Cl)cc2)ccn1-c1ccc(N2CC3(CCNCC3)C2)cc1`, the “MCH-1 pIC50” value was found to be 7.6.
